Measured values as given in ChEMBL document CHEMBL4138105, “LL-37-derived short antimicrobial peptide KR-12-a5 and its d-amino acid substituted analogs with cell selectivity, anti-biofilm activity, synergistic effect with conventional antibiotics, and anti-inflammatory activity” (Eur J Med Chem, 2017).

Legend:
Type in all cases: functional
Staphylococcus aureus [1] = test: Antibacterial activity against methicillin resistant Staphylococcus aureus CCARM 3089 after 24 hrs; conditions: CCARM 3089, 24 h
Staphylococcus aureus [2] = test: Antibacterial activity against methicillin resistant Staphylococcus aureus CCARM 3090 after 24 hrs; conditions: CCARM 3090, 24 h
Staphylococcus aureus [3] = test: Antibacterial activity against methicillin resistant Staphylococcus aureus CCARM 3095 after 24 hrs; conditions: CCARM 3095, 24 h
Pseudomonas aeruginosa [4] = test: Antibacterial activity against multidrug-resistant Pseudomonas aeruginosa CCARM 2095 after 24 hrs; conditions: CCARM 2095, 24 h
Pseudomonas aeruginosa [5] = test: Antibacterial activity against multidrug-resistant Pseudomonas aeruginosa CCARM 2109 after 24 hrs; conditions: CCARM 2109, 24 h

Which results are given for `CC[C@H](C)[C@H](NC(=O)CN)C(=O)NCC(=O)N[C@@H](C)C(=O)N[C@H](C(=O)N[C@@H](CC(C)C)C(=O)N[C@@H](CCCCN)C(=O)N[C@H](C(=O)N[C@@H](CC(C)C)C(=O)N[C@H](C(=O)N[C@H](C(=O)NCC(=O)N[C@@H](CC(C)C)C(=O)N1CCC[C@H]1C(=O)N[C@@H](C)C(=O)N[C@@H](CC(C)C)C(=O)N[C@H](C(=O)N[C@@H](CO)C(=O)N[C@@H](Cc1c[nH]c2ccccc12)C(=O)N[C@H](C(=O)N[C@@H](CCCCN)C(=O)N[C@@H](CCCNC(=N)N)C(=O)N[C@@H](CCCCN)C(=O)N[C@@H](CCCNC(=N)N)C(=O)N[C@@H](CCC(N)=O)C(=O)N[C@@H](CCC(N)=O)C(N)=O)[C@@H](C)CC)[C@@H](C)CC)[C@@H](C)O)[C@@H](C)O)C(C)C)C(C)C` [MELITTIN]?
MIC (Staphylococcus aureus [1]): 8 µM (≈ 22.8 µg/mL); MIC (Staphylococcus aureus [2]): 8 µM (≈ 22.8 µg/mL); MIC (Staphylococcus aureus [3]): 8 µM (≈ 22.8 µg/mL); MIC (Pseudomonas aeruginosa [4]): 16 µM (≈ 45.5 µg/mL); MIC (Pseudomonas aeruginosa [5]): 16 µM (≈ 45.5 µg/mL)

≈ marks a conversion by molar mass, not a printed value.
